Test results: patent US20070232691A1, “Use of ladostigil for the treatment of schizophrenia” (priority 2006, published 2007)
Like-named read-outs stand apart in the source and are kept apart here.

By UniProt entry, the sequences of proteins in these tests, tags left out.
UniProt P21396, whole entry: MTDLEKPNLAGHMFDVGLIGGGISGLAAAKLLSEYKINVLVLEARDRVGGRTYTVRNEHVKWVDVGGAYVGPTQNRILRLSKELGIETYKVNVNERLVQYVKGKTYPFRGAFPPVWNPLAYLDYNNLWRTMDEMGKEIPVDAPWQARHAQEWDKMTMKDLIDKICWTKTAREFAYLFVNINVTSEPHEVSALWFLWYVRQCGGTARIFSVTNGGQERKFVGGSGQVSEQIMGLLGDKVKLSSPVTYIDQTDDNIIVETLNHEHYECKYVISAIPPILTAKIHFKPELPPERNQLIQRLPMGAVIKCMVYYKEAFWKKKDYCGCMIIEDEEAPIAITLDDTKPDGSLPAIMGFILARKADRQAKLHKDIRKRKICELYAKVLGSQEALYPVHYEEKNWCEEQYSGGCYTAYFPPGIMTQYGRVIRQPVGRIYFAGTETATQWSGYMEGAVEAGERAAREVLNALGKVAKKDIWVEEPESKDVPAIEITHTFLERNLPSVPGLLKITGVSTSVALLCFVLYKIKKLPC
UniProt P19643, whole entry: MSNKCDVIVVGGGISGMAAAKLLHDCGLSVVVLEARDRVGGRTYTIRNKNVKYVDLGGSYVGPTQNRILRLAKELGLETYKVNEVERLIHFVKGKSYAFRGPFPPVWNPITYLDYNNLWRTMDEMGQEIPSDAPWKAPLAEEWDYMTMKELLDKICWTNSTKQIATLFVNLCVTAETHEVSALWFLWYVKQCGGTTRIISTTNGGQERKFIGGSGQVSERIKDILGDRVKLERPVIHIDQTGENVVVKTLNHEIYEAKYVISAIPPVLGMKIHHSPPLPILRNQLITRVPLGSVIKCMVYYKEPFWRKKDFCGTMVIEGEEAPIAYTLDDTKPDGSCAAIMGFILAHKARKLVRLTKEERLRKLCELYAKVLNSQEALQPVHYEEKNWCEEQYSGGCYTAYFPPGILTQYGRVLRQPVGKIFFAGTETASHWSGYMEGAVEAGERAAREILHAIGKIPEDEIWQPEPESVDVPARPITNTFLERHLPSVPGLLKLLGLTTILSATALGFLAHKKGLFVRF

Columns and labels:
[1] = target: MAO-A (Rattus norvegicus, UniProt P21396)
Text: (§1) On days 8-9, rats were trained to adjust to the peroral (“p.o.”) procedure by being fed with vehicle. […] The administration began on day 10 and continued throughout the entire procedure. Rats were fed at least one hour before being put into experimental chambers, except during preexposure and conditioning days (days 19 and 20) during which rats were fed exactly two hours before being put into experimental chambers.

[2] = target: MAO-B (Rattus norvegicus, UniProt P19643)
Text: as §1

[3] = MK-801 and ladostigil tartrate 25 mg/kg p.o. chronic
[4] = MK-801 and ladostigil tartrate 37.5 mg/kg p.o. chronic
[5] = saline and ladostigil tartrate 25 mg/kg p.o. chronic
[6] = saline and ladostigil tartrate 37.5 mg/kg p.o. chronic

R(+)-6-(N-methyl, N-ethyl-carbamoyloxy)-N′-propargyl-1-aminoindan ½ tartrate [ladostigil tartrate]
Brain MAO-A % inhibition [1, 3]: 75%
Brain MAO-A dpm/sd [1, 3]: 2366 ± 291 dpm
Brain MAO-A % inhibition [1, 4]: 84%
Brain MAO-A dpm/sd [1, 4]: 1494 ± 387 dpm
Brain MAO-A % inhibition [1, 5]: 74%
Brain MAO-A dpm/sd [1, 5]: 2459 ± 301 dpm
Brain MAO-A % inhibition [1, 6]: 83%
Brain MAO-A dpm/sd [1, 6]: 1582 ± 276 dpm
Brain MAO-B % inhibition [2, 3]: 83%
Brain MAO-B dpm/sd [2, 3]: 1485 ± 241 dpm
Brain MAO-B % inhibition [2, 4]: 89%
Brain MAO-B dpm/sd [2, 4]: 1007 ± 296 dpm
Brain MAO-B % inhibition [2, 5]: 84%
Brain MAO-B dpm/sd [2, 5]: 1501 ± 183 dpm
Brain MAO-B % inhibition [2, 6]: 89%
Brain MAO-B dpm/sd [2, 6]: 1056 ± 171 dpm
